According to PMC11436948 (Nature Communications, 2024):

T1: γ subunit of the E. coli clamp loader complex (E. coli, UniProt P06710-2 1-431)
T1 sequence: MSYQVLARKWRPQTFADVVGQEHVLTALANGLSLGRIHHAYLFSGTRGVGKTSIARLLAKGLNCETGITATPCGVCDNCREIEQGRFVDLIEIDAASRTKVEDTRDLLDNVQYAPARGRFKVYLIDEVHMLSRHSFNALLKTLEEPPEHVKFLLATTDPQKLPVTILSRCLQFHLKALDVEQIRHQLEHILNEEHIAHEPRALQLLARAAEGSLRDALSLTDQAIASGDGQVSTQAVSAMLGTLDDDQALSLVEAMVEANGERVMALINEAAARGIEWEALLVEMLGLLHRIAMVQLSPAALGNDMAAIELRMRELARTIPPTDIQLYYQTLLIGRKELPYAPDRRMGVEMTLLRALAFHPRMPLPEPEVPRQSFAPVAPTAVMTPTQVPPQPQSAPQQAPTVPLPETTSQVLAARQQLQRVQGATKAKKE

B1: τ subunit of the E. coli clamp loader complex (natural protein)
chain: MSYQVLARKWRPQTFADVVGQEHVLTALANGLSLGRIHHAYLFSGTRGVGKTSIARLLAKGLNCETGITATPCGVCDNCREIEQGRFVDLIEIDAASRTKVEDTRDLLDNVQYAPARGRFKVYLIDEVHMLSRHSFNALLKTLEEPPEHVKFLLATTDPQKLPVTILSRCLQFHLKALDVEQIRHQLEHILNEEHIAHEPRALQLLARAAEGSLRDALSLTDQAIASGDGQVSTQAVSAMLGTLDDDQALSLVEAMVEANGERVMALINEAAARGIEWEALLVEMLGLLHRIAMVQLSPAALGNDMAAIELRMRELARTIPPTDIQLYYQTLLIGRKELPYAPDRRMGVEMTLLRALAFHPRMPLPEPEVPRQSFAPVAPTAVMTPTQVPPQPQSAPQQAPTVPLPETTSQVLAARQQLQRVQGATKAKKSEPAAATRARPVNNAALERLASVTDRVQARPVPSALEKAPAKKEAYRWKATTPVMQQKEVVATPKALKKALEHEKTPELAAKLAAEAIERDPWAAQVSQLSLPKLVEQVALNAWKEESDNAVCLHLRSSQRHLNNRGAQQKLAEALSMLKGSTVELTIVEDDNPAVRTPLEWRQAIYEEKLAQARESIIADNNIQTLRRFFDAELDEESIRPI
B2: E. coli β2 sliding clamp (natural protein)
chain: MKFTVEREHLLKPLQQVSGPLGGRPTLPILGNLLLQVADGTLSLTGTDLEMEMVARVALVQPHEPGATTVPARKFFDICRGLPEGAEIAVQLEGERMLVRSGRSRFSLSTLPAADFPNLDDWQSEVEFTLPQATMKRLIEATQFSMAHQDVRYYLNGMLFETEGEELRTVATDGHRLAVCSMPIGQSLPSHSVIVPRKGVIELMRMLDGGDNPLRVQIGSNNIRAHVGDFIFTSKLVDGRFPDYRRVLPKNPDKHLEAGCDLLKQAFARAAILSNEKFRGVRLYVSENQLKITANNPEQEEAEEILDVTYSGAEMEIGFNVSYVLDVLNALKCENVRMMLTDSVSSVQIEDAASQSAAYVVMPMRL

Tests used:
Experiment in all cases: cryo-EM structure
[1] = target: T1, γ subunit of the E. coli clamp loader …
E. coli β2 sliding clamp = target: B2
[2] = target: B1
cryo-EM structure = target: the molecule itself

Row | binding result [1] | binding result (E. coli β2 sliding clamp) | binding result [2] | Binder | binding result (cryo-EM structure)
1 | binds | binds | binds | δ’ subunit of the E. coli clamp loader complex (natural protein) MRWYPWLRPDFEKLVASYQAGRGHHALLIQALPGMGDDALIYALSRYLLCQQPQGHKSCGHCRGCQLMQAGTHPDYYTLAPEKGKNTLGVDAVREVTEKLNEHARLGGAKVVWVTDAALLTDAAANALLKTLEEPPAETWFFLATREPERLLATLRSRCRLHYLAPPPEQYAVTWLSREVTMSQDALLAALRLSAGSPGAALALFQGDNWQARETLCQALAYSVPSGDWYSLLAALNHEQAPARLHWLATLLMDALKRHHGAAQVTNVDVPGLVAELANHLSPSRLQAILGDVCHIREQLMSVTGINRELLITDLLLRIEHYLQPGVVLPVPHL | –
2 | binds | – | – | δ subunit of the E. coli clamp loader complex (natural protein) MIRLYPEQLRAQLNEGLRAAYLLLGNDPLLLQESQDAVRQVAAAQGFEEHHTFSIDPNTDWNAIFSLCQAMSLFASRQTLLLLLPENGPNAAINEQLLTLTGLLHDDLLLIVRGNKLSKAQENAAWFTALANRSVQVTCQTPEQAQLPRWVAARAKQLNLELDDAANQVLCYCYEGNLLALAQALERLSLLWPDGKLTLPRVEQAVNDAAHFTPFHWVDALLMGKSKRALHILQQLRLEGSEPVILLRTLQRELLLLVNLKRQSAHTPLRALFDKHRVWQNRRGMMGEALNRLSQTQLRQAVQLLTRTELTLKQDYGQSVWAELEGLSLLLCHKPLADVFIDG | –
3 | – | – | – | B1 | binds
4 | binds | – | binds | B2 | –
